These results are taken from ChEMBL document CHEMBL5058541 (2022).

Protein sequences, listed by entry. Tags and fused reporters are not part of them.
UniProt Q96SB4, whole entry: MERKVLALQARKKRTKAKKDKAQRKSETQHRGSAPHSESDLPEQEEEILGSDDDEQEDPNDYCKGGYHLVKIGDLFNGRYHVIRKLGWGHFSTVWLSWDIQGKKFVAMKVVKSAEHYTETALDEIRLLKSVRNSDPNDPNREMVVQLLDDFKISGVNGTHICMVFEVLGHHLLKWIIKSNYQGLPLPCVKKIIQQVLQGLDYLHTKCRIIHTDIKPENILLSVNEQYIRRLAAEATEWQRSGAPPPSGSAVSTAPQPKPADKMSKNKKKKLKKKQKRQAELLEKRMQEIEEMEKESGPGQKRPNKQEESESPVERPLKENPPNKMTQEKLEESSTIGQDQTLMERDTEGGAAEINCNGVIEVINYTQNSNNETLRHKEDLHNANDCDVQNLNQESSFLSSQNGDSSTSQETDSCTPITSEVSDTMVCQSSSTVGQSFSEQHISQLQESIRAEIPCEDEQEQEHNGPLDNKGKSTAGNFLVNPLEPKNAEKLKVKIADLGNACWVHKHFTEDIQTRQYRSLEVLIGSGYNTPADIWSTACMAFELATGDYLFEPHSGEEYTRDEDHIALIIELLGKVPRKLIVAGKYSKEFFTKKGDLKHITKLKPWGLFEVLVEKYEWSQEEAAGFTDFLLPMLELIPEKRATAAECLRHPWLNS
UniProt P78362, whole entry: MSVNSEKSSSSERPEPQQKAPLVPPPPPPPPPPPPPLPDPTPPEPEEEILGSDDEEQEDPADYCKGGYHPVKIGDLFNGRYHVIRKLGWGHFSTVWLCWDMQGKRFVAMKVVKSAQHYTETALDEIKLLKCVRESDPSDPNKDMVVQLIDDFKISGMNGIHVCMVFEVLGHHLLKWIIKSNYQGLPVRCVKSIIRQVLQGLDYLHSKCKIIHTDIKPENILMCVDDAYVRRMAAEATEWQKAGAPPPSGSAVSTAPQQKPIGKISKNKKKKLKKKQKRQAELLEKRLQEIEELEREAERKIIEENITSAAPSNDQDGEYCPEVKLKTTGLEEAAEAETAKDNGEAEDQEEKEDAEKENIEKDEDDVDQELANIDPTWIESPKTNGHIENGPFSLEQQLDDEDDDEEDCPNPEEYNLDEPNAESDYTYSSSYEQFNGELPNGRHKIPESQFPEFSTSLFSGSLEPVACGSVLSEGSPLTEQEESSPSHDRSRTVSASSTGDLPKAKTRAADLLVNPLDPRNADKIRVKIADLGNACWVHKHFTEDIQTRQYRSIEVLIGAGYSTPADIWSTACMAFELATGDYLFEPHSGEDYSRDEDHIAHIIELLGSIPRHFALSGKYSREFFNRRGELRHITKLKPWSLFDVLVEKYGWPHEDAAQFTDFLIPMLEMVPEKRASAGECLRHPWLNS

One may read the IC50 as the concentration at which inhibition is half-maximal.

Each structure is given as a SMILES string. “And” between values parts separate entries of the source, which are not always exact repeats. Identical values can stand only once.

The target of one test is SRSF protein kinase 1 (Homo sapiens, UniProt Q96SB4).
The target of a further test is SRSF protein kinase 2 (Homo sapiens, UniProt P78362).

Consider `CN(c1ncccc1CNc1ccnc(-c2nc3c(F)c(Cl)ccc3[nH]2)n1)S(C)(=O)=O`, for which the half-inhibitory concentration (IC50) against SRSF protein kinase 1 is 98 nM and 44 nM; against SRSF protein kinase 2 it was 149 nM.
